Laboratory results published in ChEMBL document CHEMBL1144531, “Novel selective inhibitors of neutral endopeptidase for the treatment of female sexual arousal disorder” (Bioorg Med Chem, 2007).

Species on record: Homo sapiens
Assay: Protein binding in human plasma at 1 ug/ml by equilibrium dialysis
Conditions: read-out: PPB (converted)

SMILES | fraction unbound at 1 ug/ml
COCC[C@H](CC1(C(=O)NCCCc2ccc(Cl)cc2)CCCC1)C(=O)O | 0.017
CCC[C@H](CC1(C(=O)Nc2nnc(CC)s2)CCCC1)C(=O)O | 0.021
